Measurements as given in paper PMC6759796, “Integrating Pharmacokinetics Study, Network Analysis, and Experimental Validation to Uncover the Mechanism of Qiliqiangxin Capsule Against Chronic Heart Failure” (Frontiers in Pharmacology, 2019).

Assay: Pharmacokinetics of 29 QLQX components in rat plasma by HPLC-MS/MS after intragastric QLQX
Conditions: QLQX suspension […] intragastrically, mean ± SD

Hydroxysafflor yellow A
Tmax: 0.17 ± 0.00 | t1/2: 5.03 ± 2.00
